Assays:
[1] = organism: Homo sapiens; test: Selectivity ratio of Ki for human mu opioid receptor to Ki for human kappa opioid receptor
[2] = organism: Homo sapiens; test: Selectivity ratio of Ki for human delta opioid receptor to Ki for human kappa opioid receptor

Oc1ccc2c(c1)[C@@]13CCCC[C@H]1[C@@H](C2)N(CC1CCC1)CC3
Ratio Ki [1]: 3 | Ratio Ki [2]: 75

From ChEMBL document CHEMBL1154976, “Effect of linker substitution on the binding of butorphan univalent and bivalent ligands to opioid receptors” (Bioorg Med Chem Lett, 2010)
